Earlier results, collected in US20160263110A1 (priority 2013, published 2016).

System: ALS patients
Settings: humans; cited from earlier work

In the case of `Nc1nc2ccc(OC(F)(F)F)cc2s1` [riluzole, 6-(trifluoromethoxy)benzothiazol-2-amine], the “effect on survival in ALS” value is listed as “slight prolongation of survival; also recorded: delays death by only few months; also recorded: modest effect on survival”.

“Also recorded” adds a separate entry of the source.
